Usually Kd stands for the concentration at which binding is half-saturated. A low value points to higher affinity.

Amino acid sequences for entries named in this document (tags omitted). Residues count along the entry.
UniProt P35968, 20-1356: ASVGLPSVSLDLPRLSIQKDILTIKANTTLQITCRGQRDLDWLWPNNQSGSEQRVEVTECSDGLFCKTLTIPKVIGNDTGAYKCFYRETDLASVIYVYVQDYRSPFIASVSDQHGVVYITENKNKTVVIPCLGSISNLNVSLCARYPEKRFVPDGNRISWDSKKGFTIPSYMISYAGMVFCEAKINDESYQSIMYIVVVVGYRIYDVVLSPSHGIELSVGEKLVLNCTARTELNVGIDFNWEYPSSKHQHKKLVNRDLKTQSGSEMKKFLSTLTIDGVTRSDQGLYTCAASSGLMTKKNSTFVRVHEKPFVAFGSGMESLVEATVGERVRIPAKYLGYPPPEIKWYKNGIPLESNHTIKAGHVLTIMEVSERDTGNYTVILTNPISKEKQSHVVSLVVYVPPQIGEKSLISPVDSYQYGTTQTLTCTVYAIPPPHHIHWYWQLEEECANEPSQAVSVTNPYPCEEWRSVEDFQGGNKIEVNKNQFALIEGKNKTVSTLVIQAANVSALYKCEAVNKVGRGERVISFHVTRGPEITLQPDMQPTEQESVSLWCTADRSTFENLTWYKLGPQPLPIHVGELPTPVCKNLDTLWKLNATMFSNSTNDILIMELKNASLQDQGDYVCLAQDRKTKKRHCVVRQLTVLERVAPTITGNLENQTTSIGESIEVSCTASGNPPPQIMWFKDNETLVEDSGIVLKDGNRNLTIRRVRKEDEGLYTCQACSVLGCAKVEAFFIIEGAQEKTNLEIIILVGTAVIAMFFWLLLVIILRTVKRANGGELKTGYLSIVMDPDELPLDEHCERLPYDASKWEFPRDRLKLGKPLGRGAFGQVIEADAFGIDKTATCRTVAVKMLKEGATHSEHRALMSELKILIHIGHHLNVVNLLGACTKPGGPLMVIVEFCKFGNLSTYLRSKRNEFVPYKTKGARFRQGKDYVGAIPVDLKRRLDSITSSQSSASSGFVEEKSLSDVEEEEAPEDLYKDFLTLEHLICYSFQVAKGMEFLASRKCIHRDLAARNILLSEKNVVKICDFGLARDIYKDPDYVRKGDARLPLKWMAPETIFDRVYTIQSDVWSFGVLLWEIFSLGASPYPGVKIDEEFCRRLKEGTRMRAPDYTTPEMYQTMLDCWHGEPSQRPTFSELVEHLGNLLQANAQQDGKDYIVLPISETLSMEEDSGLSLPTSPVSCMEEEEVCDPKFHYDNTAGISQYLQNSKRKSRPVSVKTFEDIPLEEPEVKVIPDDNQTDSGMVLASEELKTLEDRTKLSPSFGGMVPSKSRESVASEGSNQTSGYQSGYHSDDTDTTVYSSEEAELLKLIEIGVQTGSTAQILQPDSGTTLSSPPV

This passage reports Kd results from patent US9902714B2, “Quinoxaline derivatives useful as FGFR kinase modulators” (ASTEX THERAPEUTICS LTD, priority 2014, dated 2018).

Where only a bound is given, the exact number is not on record here.

The target in the assay is VEGFR2 (Homo sapiens (Human), UniProt P35968). The experiment in a line: Enzyme binding assay (KINOMEscan) VEGFR2. The procedure:
Enzyme Binding Assays (KINOMEscan®)
Kinase enzyme binding affinities of compounds disclosed herein were determined using the KINOMEscan® technology performed by DiscoveRx Corporation, San Diego, Calif., USA (www.kinomescan.com). Table A3 reports the obtained Kd values (nM), with the Kd being the inhibitor binding constant: […]

For the compound `COc1cc(OC)c2c(c1)N(c1ccc3ncc(-c4cnn(C)c4)nc3c1)CCN(C(C)C)C2` [Compound 1], the Kd is more than 3.01 µM.
